The values that follow come from publication PMC9117644, “FAS2FURIOUS: Moderate-Throughput Secreted Expression of Difficult Recombinant Proteins in Drosophila S2 Cells” (Frontiers in Bioengineering and Biotechnology, 2022).

The target of this assay is T1, human TLR4 ectodomain (S2-derived) (human, UniProt O00206 23-629).
T1 construct: human toll-like receptor 4 ectodomain, UniProtKB O00206, P23-M629, Drosophila codon-optimized; Cloned into pExpreS2-1-CRPA (Addgene #175445): N-terminal BiP signal peptide for secretion, C-terminal thrombin-cleavable Protein A tag; a few residues of the thrombin site probably remain after cleavage; also called toll-like receptor 4; Drosophila-derived TLR4; source: purified (IgG Sepharose, …)
Description: ELISA; 1 µg/ml FBG-C coated overnight on the plate, blocked with 10% BSA in PBST; concentration series of TLR4 in PBST + 2% BSA, 2 h at 37°C; TLR4 detected with an anti-TLR4 primary and HRP secondary antibody, TMB, OD450; single biological replicate. Conditions: both partners purified. (An ELISA detects its analyte on a solid surface through an enzyme-linked reagent.)

B1: C-terminal fibrinogen-like globe domain of human tenascin C (domain or fragment, UniProt P24821 1974-2201, looked up)
chain: IGLLYPFPKDCSQAMLNGDTTSGLYTIYLNGDKAEALEVFCDMTSDGGGWIVFLRRKNGRENFYQNWKAYAAGFGDRREEFWLGLDNLNKITAQGQYELRVDLRDHGETAFAVYDKFSVGDAKTRYKLKVEGYSGTAGDSMAYHNGRSFSTFDKDTDSAITNCALSYKGAFWYRNCHRVNLMGRYGDNNHSQGVNWFHWKGHEHSIQFAEMKLRPSNFRNLEGRRKRA
notes: human tenascin C, fibrinogen-like globe domain, UniProtKB P24821 Isoform 1, I1974-A2201; Vector pNIC-NHStIIT; two disulfide bonds confirmed by intact mass spectrometry; also called FBG-C; source: E. coli BL21 (DE3) Tuner + CyDisCo pMJS226, purified (StrepTactinXT, TEV, SEC on Superdex 75); not shown: His6, N-terminal, cleaved; Twin-Strep-tag, N-terminal, cleaved
Regarding B1, the binding result was “binds”.
